Laboratory results taken from BindingDB's records for doi:10.1016/S1074-5521(01)00084-9 (Axys Pharmaceuticals, 2001).

Amino acid sequences for entries named in this document (tags omitted). Residues count along the entry.
UniProt P00742, 41-179 limits assumed: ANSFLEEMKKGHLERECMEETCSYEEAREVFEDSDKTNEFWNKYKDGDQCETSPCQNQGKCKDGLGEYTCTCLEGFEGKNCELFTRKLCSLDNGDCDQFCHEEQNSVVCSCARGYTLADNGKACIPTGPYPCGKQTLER
UniProt P00742, 235-488 limits assumed: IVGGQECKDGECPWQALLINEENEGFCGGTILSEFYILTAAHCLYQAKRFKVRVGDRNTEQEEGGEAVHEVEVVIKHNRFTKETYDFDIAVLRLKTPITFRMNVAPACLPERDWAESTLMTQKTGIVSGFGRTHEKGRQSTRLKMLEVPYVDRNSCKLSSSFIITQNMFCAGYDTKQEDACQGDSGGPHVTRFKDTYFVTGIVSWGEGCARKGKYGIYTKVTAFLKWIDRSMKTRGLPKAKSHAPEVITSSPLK

Assays:
Test in all cases: Enzyme Assay and Determination of the Inhibition Constants
[1] = target: T1, Serine protease 1 (Bos taurus, UniProt P00760)
T1 sequence (P00760 whole entry): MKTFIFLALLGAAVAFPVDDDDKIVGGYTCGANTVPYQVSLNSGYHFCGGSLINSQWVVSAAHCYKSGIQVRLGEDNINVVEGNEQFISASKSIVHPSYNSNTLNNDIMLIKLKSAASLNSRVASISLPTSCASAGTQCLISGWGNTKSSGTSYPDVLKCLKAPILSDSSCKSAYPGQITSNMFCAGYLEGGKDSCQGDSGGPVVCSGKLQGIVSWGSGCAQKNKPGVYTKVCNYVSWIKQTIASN

[2] = target: Urokinase-type plasminogen activator (Homo sapiens, UniProt P00749); conditions: pH 7.4; 22 °C
[3] = target: Coagulation factor X (Homo sapiens, UniProt P00742)

CC(C)COc1cccc(-c2nc3cc(F)c(C(=N)N)cc3[nH]2)c1O [CA-10]
Ki [1]: 11 µM | Ki [2]: 0.11 µM

N=C(N)c1ccc2nc(-c3cccc(-c4ccccc4)c3O)[nH]c2c1 [2-(2-hydroxy-3-phenylphenyl)-1H-1,3-benzodiazole-5-carboximidamide]
Ki [3]: 0.43 µM

N=C(N)c1ccc(NC(=O)c2ccccc2O)cc1 [N-(4-CARBAMIMIDOYL-PHENYL)-2-HYDROXY-BENZAMIDE]
Ki [2]: 3.8 µM
